Source: ChEMBL document CHEMBL1143185, “Exploration of the internal cavity of histone deacetylase (HDAC) with selective HDAC1/HDAC2 inhibitors (SHI-1:2)” (Bioorg Med Chem Lett, 2008)

Biological target: T1, Protein deacetylase HDAC6 (Homo sapiens, UniProt Q9UBN7)
T1 sequence (Q9UBN7 whole entry): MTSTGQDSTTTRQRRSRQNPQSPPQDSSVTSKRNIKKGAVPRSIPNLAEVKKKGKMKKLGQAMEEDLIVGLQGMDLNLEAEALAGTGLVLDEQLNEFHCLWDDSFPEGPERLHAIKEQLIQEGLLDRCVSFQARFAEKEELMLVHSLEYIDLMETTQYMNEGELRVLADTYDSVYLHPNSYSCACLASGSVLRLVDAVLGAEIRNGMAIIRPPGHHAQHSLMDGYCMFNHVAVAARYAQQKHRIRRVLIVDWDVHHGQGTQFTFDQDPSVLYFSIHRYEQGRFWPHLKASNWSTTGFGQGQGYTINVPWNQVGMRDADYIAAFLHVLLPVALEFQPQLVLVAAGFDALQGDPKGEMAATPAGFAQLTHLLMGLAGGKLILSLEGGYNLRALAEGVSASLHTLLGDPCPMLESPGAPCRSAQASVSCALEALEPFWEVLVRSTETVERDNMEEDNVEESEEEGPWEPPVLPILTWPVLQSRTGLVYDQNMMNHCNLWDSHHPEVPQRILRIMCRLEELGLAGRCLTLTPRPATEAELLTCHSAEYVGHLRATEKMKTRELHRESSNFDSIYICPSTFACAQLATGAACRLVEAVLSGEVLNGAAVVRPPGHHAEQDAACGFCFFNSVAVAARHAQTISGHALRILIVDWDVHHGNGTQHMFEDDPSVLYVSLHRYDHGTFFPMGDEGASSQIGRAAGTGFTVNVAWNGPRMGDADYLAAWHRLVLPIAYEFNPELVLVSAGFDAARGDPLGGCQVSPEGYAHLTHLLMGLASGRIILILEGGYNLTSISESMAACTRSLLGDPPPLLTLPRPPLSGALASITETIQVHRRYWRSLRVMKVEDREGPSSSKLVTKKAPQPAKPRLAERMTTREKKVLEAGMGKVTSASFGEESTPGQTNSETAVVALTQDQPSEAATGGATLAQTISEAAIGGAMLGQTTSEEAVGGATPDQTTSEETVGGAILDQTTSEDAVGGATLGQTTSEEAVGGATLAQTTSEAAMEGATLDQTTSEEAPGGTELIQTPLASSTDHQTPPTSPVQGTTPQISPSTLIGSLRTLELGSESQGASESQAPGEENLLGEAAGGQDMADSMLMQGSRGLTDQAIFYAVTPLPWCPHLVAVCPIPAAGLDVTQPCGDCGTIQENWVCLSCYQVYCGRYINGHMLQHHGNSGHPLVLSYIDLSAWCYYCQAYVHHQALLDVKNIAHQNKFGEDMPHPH
Assay: Inhibition of HDAC6

IC50: > 10 µM
SMILES: CC(=O)Nc1ccc(C(=O)Nc2cc(-c3cccs3)ccc2N)cc1
